Data published in ChEMBL document CHEMBL1123961 (J Med Chem, 1988).

Chains of the proteins cited; added tags and fusions are not shown. Lines headed by an entry give the natural chain unless they say otherwise; changes in a name come on top.
UniProt P08909: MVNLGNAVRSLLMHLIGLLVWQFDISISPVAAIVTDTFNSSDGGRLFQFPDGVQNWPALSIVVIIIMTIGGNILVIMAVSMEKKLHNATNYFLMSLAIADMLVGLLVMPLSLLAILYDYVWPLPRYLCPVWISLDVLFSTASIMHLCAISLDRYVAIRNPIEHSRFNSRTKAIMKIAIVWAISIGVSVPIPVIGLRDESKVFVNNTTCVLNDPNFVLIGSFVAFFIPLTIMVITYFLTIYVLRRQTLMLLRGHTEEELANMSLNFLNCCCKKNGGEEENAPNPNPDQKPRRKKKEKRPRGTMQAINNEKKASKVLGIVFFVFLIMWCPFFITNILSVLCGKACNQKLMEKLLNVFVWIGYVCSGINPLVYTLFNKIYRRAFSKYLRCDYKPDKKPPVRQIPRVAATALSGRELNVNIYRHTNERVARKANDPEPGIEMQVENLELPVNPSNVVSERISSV
UniProt P14842: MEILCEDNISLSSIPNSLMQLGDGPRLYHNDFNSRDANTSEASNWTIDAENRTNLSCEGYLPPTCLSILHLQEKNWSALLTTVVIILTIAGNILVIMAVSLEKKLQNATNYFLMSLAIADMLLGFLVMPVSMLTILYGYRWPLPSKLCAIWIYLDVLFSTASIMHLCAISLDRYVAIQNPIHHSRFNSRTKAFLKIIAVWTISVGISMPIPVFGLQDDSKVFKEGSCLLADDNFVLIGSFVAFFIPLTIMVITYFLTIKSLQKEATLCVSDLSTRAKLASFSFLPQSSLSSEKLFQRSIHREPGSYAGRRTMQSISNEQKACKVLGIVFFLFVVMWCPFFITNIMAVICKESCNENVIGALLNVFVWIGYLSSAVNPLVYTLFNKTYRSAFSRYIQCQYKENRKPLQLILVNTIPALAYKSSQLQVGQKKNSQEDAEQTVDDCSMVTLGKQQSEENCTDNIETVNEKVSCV

What was measured:
Type in all cases: tissue-based
[1] = molecular target: T1, Serotonin receptor 2a and 2c (5HT2A and 5HT2C) (Rattus norvegicus, UniProt P08909+P14842); experiment: Binding affinity at [3H]KET labeled sites of 5-hydroxytryptamine 2 receptor determined using [125I]- DOI as radioligand in rat frontal cortex
[2] = molecular target: T1, Serotonin receptor 2a and 2c (5HT2A and 5HT2C); experiment: Binding affinity at [3H]DOB labeled sites of 5-hydroxytryptamine 2 receptor determined using [125I]- DOI as radioligand in rat frontal cortex
[3] = molecular target: T1, Serotonin receptor 2a and 2c (5HT2A and 5HT2C); experiment: Binding affinity at [3H]KET labeled sites of 5-hydroxytryptamine 2 receptor was determined using [125I]- DOI as radioligand in rat frontal cortex
[4] = molecular target: T1, Serotonin receptor 2a and 2c (5HT2A and 5HT2C); experiment: Binding affinity at [3H]DOB labeled sites of 5-hydroxytryptamine 2 receptor was determined using [125I]- DOI as radioligand in rat frontal cortex
[5] = molecular target: T1, Serotonin receptor 2a and 2c (5HT2A and 5HT2C); experiment: Binding affinity at 5-hydroxytryptamine 2 receptor was determined using [125I]- DOI as radioligand in rat frontal cortex

SMILES	Ki [1]	Ki [2]	Ki [3]	Ki [4]	Ki [5]
COc1cc(C[C@@H](C)N)c(OC)cc1Br	25 nM	0.4 nM			
O=C(CCCN1CCC2(CC1)C(=O)NCN2c1ccccc1)c1ccc(F)cc1 [SPIPERONE]			0.5 nM	1.8 nM	1.2 nM
